Measured values reported in US8987312B2, “Alpha-keto heterocycles as FAAH inhibitors” (The Scripps Research Institute, priority 2008, dated 2015).

By UniProt entry, the sequences of proteins in these tests, tags left out. Residues count along the entry.
UniProt P97612, 30-579 limits assumed: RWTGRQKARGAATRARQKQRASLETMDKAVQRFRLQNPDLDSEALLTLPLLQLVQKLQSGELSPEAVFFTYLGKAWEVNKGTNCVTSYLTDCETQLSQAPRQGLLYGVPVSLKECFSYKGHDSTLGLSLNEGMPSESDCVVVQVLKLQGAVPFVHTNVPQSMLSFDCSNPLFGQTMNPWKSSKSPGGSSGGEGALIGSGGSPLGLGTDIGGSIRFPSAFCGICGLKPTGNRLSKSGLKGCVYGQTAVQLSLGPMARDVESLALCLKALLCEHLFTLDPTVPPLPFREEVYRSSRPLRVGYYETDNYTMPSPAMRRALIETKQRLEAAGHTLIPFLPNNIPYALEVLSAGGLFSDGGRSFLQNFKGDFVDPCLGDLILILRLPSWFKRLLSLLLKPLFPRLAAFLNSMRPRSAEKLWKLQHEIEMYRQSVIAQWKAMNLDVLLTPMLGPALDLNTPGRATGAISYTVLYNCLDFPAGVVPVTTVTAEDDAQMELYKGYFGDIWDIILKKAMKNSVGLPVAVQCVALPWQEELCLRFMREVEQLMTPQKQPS
UniProt Q8VCT4, 19-565 limits assumed: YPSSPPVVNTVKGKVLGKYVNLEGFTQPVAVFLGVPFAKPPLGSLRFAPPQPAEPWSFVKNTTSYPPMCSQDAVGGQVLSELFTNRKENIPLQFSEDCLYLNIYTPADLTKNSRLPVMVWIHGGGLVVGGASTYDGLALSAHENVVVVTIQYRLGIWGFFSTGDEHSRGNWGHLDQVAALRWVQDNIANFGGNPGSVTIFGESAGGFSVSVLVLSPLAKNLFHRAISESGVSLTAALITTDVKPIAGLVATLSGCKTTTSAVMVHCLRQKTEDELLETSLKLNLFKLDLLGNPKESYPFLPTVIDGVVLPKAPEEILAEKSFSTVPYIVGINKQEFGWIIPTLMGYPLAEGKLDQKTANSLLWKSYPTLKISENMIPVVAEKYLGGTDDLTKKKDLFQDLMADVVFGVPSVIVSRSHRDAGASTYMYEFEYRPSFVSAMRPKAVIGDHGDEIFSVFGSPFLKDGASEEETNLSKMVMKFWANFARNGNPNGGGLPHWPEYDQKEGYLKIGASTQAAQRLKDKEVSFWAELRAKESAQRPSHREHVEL
UniProt Q8BLF1, whole entry: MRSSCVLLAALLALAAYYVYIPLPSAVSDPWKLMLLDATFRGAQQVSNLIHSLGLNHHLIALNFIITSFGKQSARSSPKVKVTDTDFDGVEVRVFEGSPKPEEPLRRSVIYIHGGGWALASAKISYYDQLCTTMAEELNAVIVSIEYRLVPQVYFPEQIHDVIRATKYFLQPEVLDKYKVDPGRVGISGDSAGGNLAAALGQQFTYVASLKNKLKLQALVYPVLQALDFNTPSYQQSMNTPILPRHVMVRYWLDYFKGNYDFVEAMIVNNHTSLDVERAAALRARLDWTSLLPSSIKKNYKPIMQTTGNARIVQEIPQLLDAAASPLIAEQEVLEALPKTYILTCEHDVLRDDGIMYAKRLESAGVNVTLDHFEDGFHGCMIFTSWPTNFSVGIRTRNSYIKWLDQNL

What was measured:
Type in all cases: biochemical
[1] = molecular target: purified recombinant rat FAAH (Rattus norvegicus, UniProt P97612); test: FAAH inhibition enzyme assay (14C-oleamide hydrolysis, Dixon plot), rat enzyme
[2] = molecular target: triacylglycerol hydrolase (TGH) (Mus musculus, UniProt Q8VCT4); test: Activity based protein profiling (proteome-wide selectivity screening, FP-Rh), TGH; conditions: read-out: TGH IC50, Table 4
KIAA1363 = KIAA1363 (Mus musculus, UniProt Q8BLF1); test: Activity based protein profiling (proteome-wide selectivity screening, FP-Rh), KIAA1363; conditions: read-out: KIAA1363 IC50, Table 4

For O=C(CCc1ccc(-c2ccccc2)cc1)c1nnc(-c2ccccn2)o1, the Ki [1] was 0.3 nM.
In the case of O=C(CCCCCCc1ccccc1)c1ncco1, the IC50 [2] is reported as 20 nM and the IC50 (KIAA1363) is reported as 20000 nM.
